Among the data in PubChem BioAssay AID720700 (The Scripps Research Institute Molecular Screening Center, 2013) are inhibition values, retold here.

Amino acid sequences for entries named in this document (tags omitted).
UniProt P19174, whole entry: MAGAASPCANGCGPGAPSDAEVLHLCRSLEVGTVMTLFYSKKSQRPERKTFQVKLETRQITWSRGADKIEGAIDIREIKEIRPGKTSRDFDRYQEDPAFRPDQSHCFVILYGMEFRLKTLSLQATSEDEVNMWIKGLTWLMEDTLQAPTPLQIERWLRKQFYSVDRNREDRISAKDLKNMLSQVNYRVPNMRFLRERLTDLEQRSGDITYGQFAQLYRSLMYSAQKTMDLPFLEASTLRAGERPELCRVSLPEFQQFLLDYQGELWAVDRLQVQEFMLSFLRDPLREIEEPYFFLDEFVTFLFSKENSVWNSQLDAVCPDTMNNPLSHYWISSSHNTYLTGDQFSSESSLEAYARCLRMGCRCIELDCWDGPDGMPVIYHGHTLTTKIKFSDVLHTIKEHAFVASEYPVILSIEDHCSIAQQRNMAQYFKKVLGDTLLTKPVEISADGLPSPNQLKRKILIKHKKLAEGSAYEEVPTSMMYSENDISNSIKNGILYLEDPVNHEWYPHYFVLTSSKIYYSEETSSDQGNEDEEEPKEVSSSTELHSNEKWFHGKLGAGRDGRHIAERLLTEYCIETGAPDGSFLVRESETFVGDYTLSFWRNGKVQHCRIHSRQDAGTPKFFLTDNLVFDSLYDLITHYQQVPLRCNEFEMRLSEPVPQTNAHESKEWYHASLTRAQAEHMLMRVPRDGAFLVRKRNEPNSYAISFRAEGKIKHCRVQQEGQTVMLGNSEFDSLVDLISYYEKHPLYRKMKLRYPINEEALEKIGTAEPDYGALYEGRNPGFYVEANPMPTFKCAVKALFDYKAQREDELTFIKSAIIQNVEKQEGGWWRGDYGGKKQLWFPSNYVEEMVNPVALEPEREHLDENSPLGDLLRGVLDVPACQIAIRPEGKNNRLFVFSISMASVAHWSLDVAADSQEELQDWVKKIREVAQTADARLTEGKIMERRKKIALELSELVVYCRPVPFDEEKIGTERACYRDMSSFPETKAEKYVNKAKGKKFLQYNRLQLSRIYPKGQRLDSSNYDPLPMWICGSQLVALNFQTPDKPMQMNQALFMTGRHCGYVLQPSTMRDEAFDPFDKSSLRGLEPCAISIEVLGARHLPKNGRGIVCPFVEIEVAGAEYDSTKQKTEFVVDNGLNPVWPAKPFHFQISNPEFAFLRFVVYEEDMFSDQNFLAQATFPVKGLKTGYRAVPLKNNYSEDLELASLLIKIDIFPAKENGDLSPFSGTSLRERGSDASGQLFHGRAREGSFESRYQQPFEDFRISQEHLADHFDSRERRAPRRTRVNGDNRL

The list shows a part of the results, in another mix than the full data. Active and inactive are the calls of the source. No stated cut-off is given here; in the data, active means inhibition above about 9.5%; inactive means the rest.

The target of the experiment is 1-phosphatidylinositol 4,5-bisphosphate phosphodiesterase gamma-1 (Homo sapiens) (UniProt P19174). Kind of experiment: blockers of human PLCG1 activity – biochemical, fluorescence, purified enzyme, primary screen (AID 720700). As to conditions: purified PLC-gamma1, fluorogenic substrate, at 12.2 µM, hits give high values.
On to `CCC(=O)N(c1ccccc1)C1(COC)CCN(CCc2cccs2)CC1`, for which the inhibition is inactive: -3.39%.
Take `CCC(=O)N(c1ccccc1)C1(COC)CCN(CCn2nnn(CC)c2=O)CC1`: the inhibition is inactive: 3.92%.
